Laboratory results published in PMC3038857, “Using Nuclear Receptor Activity to Stratify Hepatocarcinogens” (PLoS ONE, 2011).

Legend:
[1] = test system: CYP1A1; experiment: CLZD_CYP1A1: Change in expression of CYP1A1 (primary human hepatocytes); format: cell-based; settings: 24 hr
Method: (§1) This is a collection of multiplexed gene expression assays focused on Phase I and II xenobiotic metabolizing enzymes and transporters. Human primary cell cultures were treated with chemicals at 5 concentrations (0.004-40 [drawing 42] M) for 6, 24 and 48 hr. Concentration- and time-response profiles of chemicals were measured by the expression of key nuclear receptor target genes, activities of CYP1A enzymes (EROD), and cell morphology. Fourteen gene targets were monitored by quantitative nuclease protection assay including: six representative cytochrome P-450 genes, four hepatic transporters, three Phase II conjugating enzymes, and one endogenous metabolism gene involved in cholesterol synthesis. […]
(§2) Multiplexed Gene Expression in Human Primary Hepatocytes: This is a collection of multiplexed gene expression assays focused on Phase I and II metabolic enzymes and transporters. […] Fourteen gene targets were monitored by quantitative nuclease protection assay: six representative cytochrome P450 genes, four hepatic transporters, three Phase II conjugating enzymes, and one endogenous metabolism gene involved in cholesterol synthesis. […]

[2] = test system: CYP1A2; experiment: CLZD_CYP1A2: Change in expression of CYP1A2 (primary human hepatocytes); format: cell-based; settings: 24 hr
Method: as §1, §2

For O=C(Nc1ccc([N+](=O)[O-])cc1Cl)c1cc(Cl)ccc1O [row 220], the CLZD_CYP1A1_24 [1] was 5.154 and the CLZD_CYP1A2_24 [2] was 4.956.
